Tests used:
[1] = molecular target: CI-MPR on L6 myoblast cells; test: cell-based or functional assay
[2] = molecular target: CI-MPR on L6 myoblast cells; test: estimated from the half maximal value of uptake into L6 myoblasts (GAA activity in lysates)

uptake by L6 myoblasts (GAA activity in cell lysates), concentration at which uptake approached saturation [1]: 500 nM
Kd [2]: 100 nM
Substance: Recombinant human acid alpha-glucosidase (rhGAA), unmodified (from UniProt P10253 70-952) (enzyme)
